In ChEMBL document CHEMBL1159180, “Synthesis of 7-chloro-4-substituted aminoquinolines and their in vitro ability to produce methemoglobin in canine hemolysate” (1997):

How the values were obtained:
Canis familiaris [1] = species: Canis familiaris; assay: In vitro effect on methemoglobin formation specified at 5 mM concentration
Canis familiaris [2] = species: Canis familiaris; assay: In vitro effect on methemoglobin formation specified at 1 mM concentration
Canis familiaris [3] = species: Canis familiaris; assay: In vitro effect on methemoglobin formation specified at 250 uM concentration
Canis familiaris [4] = species: Canis familiaris; assay: In vitro effect on methemoglobin formation at specified 5 mM concentration

| Structure (SMILES) | Methemoglobin (Canis familiaris [1]) | Methemoglobin (Canis familiaris [2]) | further results |
| --- | --- | --- | --- |
| O=[N+]([O-])c1ccc(OCCNc2ccnc3cc(Cl)ccc23)cc1 | 11.2% |  |  |
| Clc1ccc2c(NCCN3CCN(c4ccccc4)CC3)ccnc2c1 | 6.15% |  |  |
| O=N[O-].[Na+] |  | 100% | Methemoglobin (Canis familiaris [3]): 19.2% |
| COc1cc(NC(C)CCCN)c2ncccc2c1 (stereo unspecified) |  |  | Methemoglobin (Canis familiaris [4]): 89.9% |
| Clc1ccc2c(NCc3ccco3)ccnc2c1 | 22.2% |  |  |
| O=[N+]([O-])c1ccc(NNc2ccnc3cc(Cl)ccc23)cc1 | 82.6% | 9.3% |  |
| CC(=O)c1ccc(Nc2ccnc3cc(Cl)c([N+](=O)[O-])cc23)c([N+](=O)[O-])c1 | 12.8% |  |  |
| O=[N+]([O-])c1cc2c(NCCO)ccnc2cc1Cl | 21.9% | 2.7% |  |
